{"source": "ChEMBL document CHEMBL4482313", "about": "“Method and compounds for inhibition of cell death” (2012)", "target": "T1, Serine protease HTRA2, mitochondrial (Homo sapiens, UniProt O43464)", "T1 sequence (O43464 whole entry)": "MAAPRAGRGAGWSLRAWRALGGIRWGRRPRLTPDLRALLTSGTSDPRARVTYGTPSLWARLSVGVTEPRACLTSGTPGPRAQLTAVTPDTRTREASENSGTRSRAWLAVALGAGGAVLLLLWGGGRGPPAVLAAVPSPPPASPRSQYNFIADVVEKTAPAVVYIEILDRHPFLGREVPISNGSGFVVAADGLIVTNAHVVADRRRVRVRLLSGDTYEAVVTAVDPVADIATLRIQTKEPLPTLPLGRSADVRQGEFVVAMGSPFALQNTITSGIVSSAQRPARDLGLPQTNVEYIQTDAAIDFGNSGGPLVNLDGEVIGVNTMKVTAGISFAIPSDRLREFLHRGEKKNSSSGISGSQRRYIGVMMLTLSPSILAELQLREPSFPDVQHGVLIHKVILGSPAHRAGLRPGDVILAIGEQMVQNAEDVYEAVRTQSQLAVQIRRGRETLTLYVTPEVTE", "experiment": "Inhibition of His-tagged Omi/HtrA2 (134 to 458 residues) (unknown origin) expressed in TB1 Escherichia coli at 10 to 100 uM pre-incubated for 10 mins before un-labeled beta-casein substrate addition and measured after 30 mins by Coomassie blue staining based SDS-PAGE analysis", "data": [{"smiles": "COc1ccc(-c2ccc(C=C3C(=O)N(c4ccccc4)C(=S)N(c4ccccc4)C3=O)o2)cc1Cl", "values": [{"measurement": "IC50", "result": 45.9, "unit": "µM"}]}]}
